# From patent US9612240B2, “Biomimetic chemical sensors using nanoelectronic readout of olfactory receptors” (The Trustees Of The University Of Pennsylvania, priority 2010, dated 2017)
# Tests used:
# mOR203-1 = assay: Vapor response of mOR-functionalized carbon nanotube transistor; details: mOR203-1 in digitonin micelles, single sensor, FIG. 4
# [1] = test system: mouse olfactory receptor proteins (mORs); assay: Vapor response of mOR-functionalized NT devices, mOR not specified; assay type: binding; details: mOR not given
compound,measurement,setting,value
Cc1ccc([N+](=O)[O-])cc1[N+](=O)[O-],change in conductance,mOR203-1,negative changes in conductance
same,lowest concentration producing a response,[1],7 ppb

# Only a part of the results on these compounds is given; other tests are left out.
